{
  "sequences": {"note": "Amino acid sequences for entries named in this document (tags omitted). A change or cut given only in a name is not applied to a line headed by its entry.", "UniProt Q01726": "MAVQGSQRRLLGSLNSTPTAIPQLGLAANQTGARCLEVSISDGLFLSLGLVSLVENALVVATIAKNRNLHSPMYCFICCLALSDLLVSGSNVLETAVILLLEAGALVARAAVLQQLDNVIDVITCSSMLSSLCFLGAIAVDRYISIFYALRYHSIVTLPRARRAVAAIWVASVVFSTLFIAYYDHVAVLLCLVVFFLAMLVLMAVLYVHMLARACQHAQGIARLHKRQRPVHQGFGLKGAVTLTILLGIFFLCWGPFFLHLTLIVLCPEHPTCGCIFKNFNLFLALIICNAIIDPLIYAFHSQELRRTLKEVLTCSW", "UniProt P41968": "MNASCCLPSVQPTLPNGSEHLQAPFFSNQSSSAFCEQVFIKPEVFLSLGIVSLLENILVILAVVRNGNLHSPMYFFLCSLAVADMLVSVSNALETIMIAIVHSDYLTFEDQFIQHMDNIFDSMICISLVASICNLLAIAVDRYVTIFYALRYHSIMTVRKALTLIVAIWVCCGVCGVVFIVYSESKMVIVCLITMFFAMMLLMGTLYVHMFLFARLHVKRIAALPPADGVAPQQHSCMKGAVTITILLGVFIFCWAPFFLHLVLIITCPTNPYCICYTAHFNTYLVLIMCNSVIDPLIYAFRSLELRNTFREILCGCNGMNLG"},
  "source": "ChEMBL document CHEMBL1135618",
  "about": "“Design and pharmacology of N-[(3R)-1,2,3,4-tetrahydroisoquinolinium- 3-ylcarbonyl]-(1R)-1-(4-chlorobenzyl)- 2-[4-cyclohexyl-4-(1H-1,2,4-triazol- 1-ylmethyl)piperidin-1-yl]-2-oxoethylamine (1), a potent, selective, melanocortin subtype-4 receptor agonist” (J Med Chem, 2002)",
  "key": {"[1]": {"target": "T1, Melanocyte-stimulating hormone receptor (Homo sapiens, UniProt Q01726)", "assay": "Functional activity as concentration at 50% maximum cAMP accumulation in human melanocortin 1 (MC1R) receptor"}, "[2]": {"target": "T1, Melanocyte-stimulating hormone receptor", "assay": "Evaluated for binding affinity against human melanocortin 1 (hMC1R) receptor by displacing [125I]NDP-alpha-MSH radioligand expressed in CHO cells", "format": "functional, cell-based"}, "Melanocortin receptor 3 [3]": {"target": "T2, Melanocortin receptor 3 (Homo sapiens, UniProt P41968)", "assay": "Functional activity as concentration at 50% maximum cAMP accumulation in human melanocortin 1 (MC3R) receptor"}, "Melanocortin receptor 3 [4]": {"target": "T2, Melanocortin receptor 3", "assay": "Evaluated for binding affinity against human Melanocortin-3 receptor (hMC3R) by displacing [125I]NDP-alpha-MSH radioligand expressed in CHO cells", "format": "cell-based"}, "Melanocortin receptor 3 [5]": {"target": "T2, Melanocortin receptor 3", "assay": "Evaluated for Functional Activity at MC3R as effective concentration at 50% maximum CMP accumulation"}},
  "data": [
    {"smiles": "O=C(N[C@H](Cc1ccc(Cl)cc1)C(=O)N1CCC(Cn2cncn2)(C2CCCCC2)CC1)[C@H]1Cc2ccccc2CN1", "values": [
      {"measurement": "EC50", "setting": "[1]", "value": 2850, "unit": "nM"},
      {"measurement": "IC50", "setting": "[2]", "value": 2070, "unit": "nM"},
      {"measurement": "EC50", "setting": "Melanocortin receptor 3 [3]", "value": 2490, "unit": "nM"},
      {"measurement": "IC50", "setting": "Melanocortin receptor 3 [4]", "value": 761, "unit": "nM"},
      {"measurement": "EC50", "setting": "Melanocortin receptor 3 [5]", "value": 2490, "unit": "nM"}
    ]}
  ]
}
